Tested on: interleukin-2 (IL-2) production in primary murine CD4+ T cells
Settings: comparing 71-fold reduction in immunosuppressive activity and 17-fold reduction in efficacy in C. neoformans

C=CCC1C=C(C)CC(C)CC(OC)C2OC(O)(C(=O)C(=O)N3CCCCC3C(=O)OC(C(C)=CC3CCC(O)C(OC)C3)C(C)C(O)CC1=NNC(C)=O)C(C)CC2OC (stereo not shown) [APX879]
Improvement in the therapeutic window: 4 fold
